Earlier results on one compound are cited in publication PMC6587507, “Comparison of the metabolism of 10 chemicals in human and pig skin explants” (Journal of Applied Toxicology, 2018).

The conditions of this data set: ref Chemspider (www.chemspider.com); cited from earlier work.

For the compound `COc1cc(C=O)ccc1O` [Vanillin], the LogP (usually the decadic logarithm of the partition coefficient of the neutral form, usually between octanol and water) is listed as 1.21.
